Molecular target: IGF‐1R (Homo sapiens, UniProt P08069)
Experiment: Ligand-dependent phosphorylation of IGF-1R(Y1131) in PBMCs stimulated ex vivo with rhIGF-1
Settings: normal volunteer, lycopene 150mg/d x 7d

Sequences of proteins named here, by UniProt entry; tags and fusion partners are left off. Residues count along the entry.
UniProt P08069, 31-1367: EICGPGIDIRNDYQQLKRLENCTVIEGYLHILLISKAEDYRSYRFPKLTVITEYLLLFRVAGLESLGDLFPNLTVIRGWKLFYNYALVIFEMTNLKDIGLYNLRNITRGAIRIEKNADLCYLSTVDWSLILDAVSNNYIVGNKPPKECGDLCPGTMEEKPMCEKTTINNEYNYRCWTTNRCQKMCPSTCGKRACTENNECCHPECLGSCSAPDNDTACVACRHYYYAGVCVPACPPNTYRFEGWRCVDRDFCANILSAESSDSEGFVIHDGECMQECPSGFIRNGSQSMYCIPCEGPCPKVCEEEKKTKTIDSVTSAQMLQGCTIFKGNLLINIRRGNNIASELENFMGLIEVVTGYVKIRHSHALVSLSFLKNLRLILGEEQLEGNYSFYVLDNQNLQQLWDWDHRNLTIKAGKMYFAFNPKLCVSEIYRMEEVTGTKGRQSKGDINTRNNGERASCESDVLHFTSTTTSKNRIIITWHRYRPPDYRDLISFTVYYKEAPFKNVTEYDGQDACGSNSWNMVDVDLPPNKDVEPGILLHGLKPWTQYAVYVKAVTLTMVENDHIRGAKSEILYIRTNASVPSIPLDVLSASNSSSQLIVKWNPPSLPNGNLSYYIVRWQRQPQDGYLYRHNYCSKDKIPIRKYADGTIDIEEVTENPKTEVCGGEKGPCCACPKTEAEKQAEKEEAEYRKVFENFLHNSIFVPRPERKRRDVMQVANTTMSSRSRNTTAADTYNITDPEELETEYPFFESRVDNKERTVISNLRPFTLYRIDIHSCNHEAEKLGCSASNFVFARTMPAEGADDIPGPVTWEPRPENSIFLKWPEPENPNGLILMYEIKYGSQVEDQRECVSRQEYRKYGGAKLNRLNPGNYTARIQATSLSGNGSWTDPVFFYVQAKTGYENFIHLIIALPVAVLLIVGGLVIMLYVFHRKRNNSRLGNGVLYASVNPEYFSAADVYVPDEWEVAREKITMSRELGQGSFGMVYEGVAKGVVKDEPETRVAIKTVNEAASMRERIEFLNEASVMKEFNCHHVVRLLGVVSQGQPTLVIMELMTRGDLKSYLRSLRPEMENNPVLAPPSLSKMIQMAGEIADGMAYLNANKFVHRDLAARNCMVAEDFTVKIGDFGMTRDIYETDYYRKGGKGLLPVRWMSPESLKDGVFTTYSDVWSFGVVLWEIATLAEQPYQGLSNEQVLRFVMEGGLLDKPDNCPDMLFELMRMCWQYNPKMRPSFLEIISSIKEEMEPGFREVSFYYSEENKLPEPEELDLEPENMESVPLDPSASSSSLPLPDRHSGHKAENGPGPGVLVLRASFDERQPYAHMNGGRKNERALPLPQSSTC

## CC(C)=CCC/C(C)=C/C=C/C(C)=C/C=C/C(C)=C/C=C/C=C(C)/C=C/C=C(C)/C=C/C=C(\C)CCC=C(C)C [lycopene]
12 days after start of dosing
  Reduction in ligand-stimulated phosphorylation of the IGF-1R, nadir: 65%
At 7 days
  Reduction in ligand-stimulated phosphorylation of the IGF-1R: 50%

Source: article PMC10958125 (Clinical and Translational Medicine, 2024)
